Most compounds without a hit are left out; they make up all but 1.8% or so of the library.
RAD54 branch – inhibitors of human RAD54 branch migration; AID 602329; RAD54 Holliday junction branch migration, FAM/BHQ fluorescence; 0.14% of 360,000 active; inhibition, % at 10.4 µM; Q92698;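 active = mean normalized replicate activity at least 40 and at least half of replicates scoring 40 or more; inconclusive = only one of the two criteria met; inactive = mean below 40 and under half of replicates reaching 40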;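 note: 0% = median of neutral control wells and 100% = median of positive control wells; inhibitors cause a drop in the FAM fluorescence signal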
MLL AF4-AF9 inh – blocks AF4 peptide binding to human AF9 | P42568 | AID 651704 | 0.47% of 350,000 active | inhibition, % at 10 µM | AlphaScreen, biotin-AF4 peptide binding to FLAG-AF9;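 active = every replicate reaching a set inhibition limit, whatever the replicate mean, cut at about 25% in these data; inconclusive = mean inhibition reaches that limit but some replicates miss it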;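 note: 0% = plate neutral control median and 100% = total signal loss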
SIRT5 inh – sirtuin-5 (human) deacylase inhibition; 1.1% of 330,000 active; Purified SirT5, succinyl-peptide AMC, trypsin-coupled fluorescence; inhibition, % at 15 µM; AID 652115; in the data active = inhibition above about 15%; inconclusive = no clear call, values can overlap the other calls
RAD52 anneal inh – blocks human RAD52 DNA annealing. P43351. recombinant RAD52 DNA annealing, FRET fluorescence. inhibition, % at 18.7 µM. 0.46% of 360,000 active;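 active = every replicate showing at least 50% inhibition; inconclusive = mean inhibition at least 50% but not in every replicate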
UUG fidelity – yeast start codon fidelity modulation; activity score, % at 18.7 µM; actives 0.13% (n = 350,000); S. cerevisiae UUG-firefly luciferase reporter, luminescence/redox ratio; AID 602363;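 active means replicate mean at a twofold rise or more, about +100% in these data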;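 further: firefly luciferase made from a UUG start codon reports start codon fidelity; reporter light over untreated wells divided by growth signal over untreated wells; some hits fall short of that in this replicate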
E-selectin induc – E-selectin induction on HUVECs; P16581; HUVEC E-selectin immunofluorescence imaging; normalized: neutral wells 0, TNF-alpha wells 100; activation, % at 7.58 µM; 0.37% of 260,000 active; AID 686992;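 active = mean E-selectin-positive cell signal at least 10% of the positive control, reached in at least 60% of replicates, without over 20% cell loss; inconclusive = no rule given, readout overlaps actives, possibly toxicity-flagged; inactive = the rest, including those meeting only one limit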
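Test system: HUVEC; input: 3,000 HUVEC/well; measured by: immunofluorescence imaging; read-out: % PE-positive cells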
Numbers without * were called inactive; u = inconclusive; x = not tested or not shown.

entry	Structure	UUG fidelity	SIRT5 inh	MLL AF4-AF9 inh
1	O=C(C[C@H]1C=C[C@H](NC(=O)Nc2cc(F)ccc2F)[C@@H](CO)O1)NCc1ccc2c(c1)OCO2	x	1	-2
2	CCc1ccc(N2CC(C(=O)OCC(=O)Nc3ccccc3C)CC2=O)cc1 (stereo not given)	-19	-1	-2
3	CCOc1ccccc1NC(=O)COC(=O)C1CC(=O)N(c2c(C)cccc2C)C1 (stereo not given)	-1	19*	-1
4	CCCCn1nnc(NC(=S)NC(=O)c2cccs2)n1	-11	21*	-4
5	Cc1cc(=O)oc2c(C)c(OCC(=O)N3CCN(c4ccc(F)cc4)CC3)ccc12	-6	-4	-1
6	Cc1cccc(N2CCN(C(=O)COc3ccc4c(C)cc(=O)oc4c3C)CC2)c1C	0	19*	0
7	Cc1ccc2nc(SC(C)C(=O)N3CC(C)OC(C)C3)[nH]c2c1 (stereo not given)	x	22*	2
8	C[C@H]1CN([C@@H](C)CO)C(=O)Cc2cc(NC(=O)Nc3ccc4c(c3)OCO4)ccc2O[C@@H]1CN(C)Cc1ccc(-c2ccccc2)cc1	1	0	3
9	COc1ccc2c(c1)OC1(C)CC2C(C(=O)c2ccccc2OC)C(=O)N1 (stereo not given)	-10	-1	49*
10	N#C[C@@H]1[C@H](c2ccc(-c3ccccc3F)cc2)[C@H](CO)N1C(=O)Cc1ccccc1	-7	4	-2

entry	RAD52 anneal inh	E-selectin induc	RAD54 branch
1	5	1	0
2	-6	x	1
3	-15	x	-6
4	-25	x	8
5	-1	x	0
6	1	1	-8
7	-11	6	x
8	-9	x	0
9	-4	0	3
10	-102	0	8

Following part
entry	Structure	UUG fidelity	SIRT5 inh	MLL AF4-AF9 inh
11	COC(c1ccccc1)c1nnc(CCC(=O)N(C)C(C2CC2)C2CC2)o1 (stereo not given)	-8	15*	-2
12	Cc1cc(=O)oc2c(C)c(OC(C)C(=O)NCCCN3CCCC3=O)ccc12 (stereo not given)	-23	26*	-3
13	CCc1cc(=O)oc2cc(C)cc(OC(C)C(=O)NCCCN3CCCC3=O)c12 (stereo not given)	x	-1	2
14	O=C(Nc1ccc(CSc2ccccc2)cc1)c1ccccc1	x	15*	0
15	O=C(Nc1cccc([N+](=O)[O-])c1)c1ccc(CSc2ccccc2)cc1	-15	x	x
16	C[C@H]1CN([C@@H](C)CO)C(=O)Cc2cc(NC(=O)Nc3ccc(C(F)(F)F)cc3)ccc2O[C@H]1CN(C)S(=O)(=O)c1cn(C)cn1	-15	1	4
17	C[C@@H]1CN([C@H](C)CO)C(=O)c2cccc(NC(=O)Nc3ccc4c(c3)OCO4)c2O[C@@H]1CN(C)C	-13	-4	0
18	CNC[C@H]1Oc2c(NC(=O)Nc3ccc4c(c3)OCO4)cccc2C(=O)N([C@@H](C)CO)C[C@H]1C	17	99*	10
19	CNC[C@@H]1Oc2c(NC(=O)Nc3ccc(F)cc3)cccc2C(=O)N([C@H](C)CO)C[C@H]1C	-5	-2	-1
20	CCCC(=O)N1CC2(CN(C)C2)c2c(n(C)c3cc(OC)ccc23)[C@H]1CO	x	1	1

entry	RAD52 anneal inh	E-selectin induc	RAD54 branch
11	-1	x	-12
12	-5	0	-1
13	-4	4	x
14	-8	x	x
15	x	x	-4
16	4	0	-3
17	-1	x	2
18	-4	0	11
19	-19	131*	6
20	-14	1	x

Brought forward from above: 3 entries, followed by the next part.
entry	Structure	UUG fidelity	SIRT5 inh	MLL AF4-AF9 inh
18	CNC[C@H]1Oc2c(NC(=O)Nc3ccc4c(c3)OCO4)cccc2C(=O)N([C@@H](C)CO)C[C@H]1C	17	99*	10
19	CNC[C@@H]1Oc2c(NC(=O)Nc3ccc(F)cc3)cccc2C(=O)N([C@H](C)CO)C[C@H]1C	-5	-2	-1
20	CCCC(=O)N1CC2(CN(C)C2)c2c(n(C)c3cc(OC)ccc23)[C@H]1CO	x	1	1
21	O=C(C[C@H]1CC[C@@H]2[C@H](COC[C@H](O)CN2C(=O)c2ccc3c(c2)OCO3)O1)NC1Cc2ccccc2C1	-1	-1	-1
22	C[C@@H]1CN([C@@H](C)CO)C(=O)Cc2cc(NC(=O)C3CC3)ccc2O[C@H]1CN(C)Cc1ccc(C(=O)O)cc1	-8	-3	-3
23	Cc1ccc(S(=O)(=O)NC2CCN(Cc3cccc(OCCO)c3)CC2)cc1	2	x	17
24	C#CCOCCOCCOCCNc1nc(N2CCN(C(=O)CCCCCCCCCCNC(=O)Cn3cc(C[C@@H](C)O)nn3)CC2)nc(N2CCN(C(=O)CCCCCCCCCCNC(=O)[C@@H]([C@H](C)CC)n3cc(CCCCCN)nn3)CC2)n1	-5	x	x
25	C#CCOCCOCCOCCNc1nc(N2CCN(C(=O)CCCCCCCCCCNC(=O)Cn3cc(CCCCCN)nn3)CC2)nc(N2CCN(C(=O)CCCCCCCCCCNC(=O)Cn3cc(C[C@@H](C)O)nn3)CC2)n1	0	-2	x
26	C#CCOCCOCCOCCNc1nc(N2CCN(C(=O)[C@H](CCCCN)n3cc(CN)nn3)CC2)nc(N2CCN(C(=O)[C@H](CCCCN)n3cc(CN)nn3)CC2)n1	59	-5	57*
27	C[C@H](CO)N1C[C@H](C)[C@H](CN(C)S(=O)(=O)c2cn(C)cn2)Oc2c(NS(=O)(=O)c3ccccc3)cccc2C1=O	-11	4	-16
28	C[C@@H]1CCCCO[C@@H](CN(C)S(=O)(=O)c2ccc(F)cc2)[C@H](C)CN([C@@H](C)CO)C(=O)c2cc(NC(=O)CCCN(C)C)ccc2O1	22	-3	7
29	CC(C)c1ccc(NC(=O)CNCC(c2ccccc2)N(C)C)cc1 (stereo not given)	-14	17*	u
30	CCNC(=O)[C@@H]1[C@@H](CO)[C@@H]2Cn3c(ccc(-c4ccccc4F)c3=O)[C@H]1N2C(=O)CC	x	-10	1

entry	RAD52 anneal inh	E-selectin induc	RAD54 branch
18	-4	0	11
19	-19	131*	6
20	-14	1	x
21	10	0	6
22	-3	0	-1
23	51*	x	-21
24	x	x	2
25	52*	x	0
26	61*	0	-19
27	7	0	-16
28	14	0	8
29	-14	x	11
30	101*	0	2

New compounds follow
entry	Structure	UUG fidelity	SIRT5 inh	MLL AF4-AF9 inh
31	CC(=O)N1[C@@H]2c3ccc(-c4ccccc4)c(=O)n3C[C@H]1[C@H](CO)[C@H]2C(=O)N1CCCCC1	x	-33	0
32	CCN1C(c2ccccc2)=C(c2ccccc2)S/C1=C/C=C1\SC(=S)N(C)C1=O	-2	x	x
33	CCN1C(=O)/C(=C/C=C2/Sc3ccc4ccccc4c3N2CCO)SC1=S	-16	x	-11
34	Cc1ccc(OCC(=O)Nc2nnc(S(=O)(=O)N3CCCCCC3)s2)cc1C	-3	0	6
35	O=C(COc1ccc(Cl)cc1)Nc1nnc(S(=O)(=O)N2CCCCCC2)s1	-15	-4	3
36	C[C@@H]1CN([C@H](C)CO)C(=O)c2cc(NS(=O)(=O)c3cccs3)ccc2O[C@@H](C)CCCCO[C@H]1CN(C)Cc1ccc(Cl)c(Cl)c1	61	5	7
37	C[C@@H]1CCCCO[C@H](CN(C)Cc2ccc(C(F)(F)F)cc2)[C@@H](C)CN([C@@H](C)CO)C(=O)c2cc(NS(=O)(=O)c3cccs3)ccc2O1	8	17*	-5
38	C[C@@H]1CCCCO[C@@H](CN(C)Cc2ccc(Cl)c(Cl)c2)[C@H](C)CN([C@@H](C)CO)C(=O)c2cc(NS(=O)(=O)c3cccs3)ccc2O1	22	25*	-2

entry	RAD52 anneal inh	E-selectin induc	RAD54 branch
31	63*	0	3
32	x	x	-3
33	-13	34*	4
34	-23	0	7
35	-20	115*	-4
36	-12	0	-2
37	-26	0	-3
38	11	0	-15

Bioassay records as filed in PubChem.
